Assay results reported in article PMC9531372, “Metabolic profiling and pharmacokinetic studies of Baihu-Guizhi decoction in rats by UFLC-Q-TOF–MS/MS and UHPLC-Q-TRAP-MS/MS” (Chinese Medicine, 2022).

Assay: Pharmacokinetics of five absorbed components in rat serum after single or multiple gavage of BHGZD (UHPLC-Q-TRAP-MS/MS)
Source text: Male Lewis rats, weighing 200–240 g, were purchased from Beijing Charles River Experimental Animals Co. Ltd. (Beijing, China). […] Animal experiments were approved and supervised by the National Institutes of Health guide for the care and use of Laboratory animals. Every effort was made to minimize both the employed animal numbers as well as the potential discomfort of the animals throughout the study.
For single administration, rats were orally administrated with BHGZD powder at dose of 21.4 g/kg, which was equivalent to two-fold of clinical dose in human. […] For multiple administration, rats were intragastrically administered BHGZD (21.4 g/kg/day) once a day, for continuous 12 days. […] Serum was freshly prepared by centrifugation and stored at – 80 ℃ till analysis.
Quantification for five absorbed compounds of BHGZD in rat serum were achieved by using a Shimadzu ultra-high-performance liquid chromatography tandem ion trap quadrupole Q-TRAP 6500 plus mass spectrometry (UHPLC-Q-TRAP-MS/MS). Sample preparations were described above.
Chromatographic separation was carried out on a Poroshell 120 EC-C18 column (50 × 3.0 mm, 2.7 μm, Agilent, USA) with a flow rate 0.3 mL/min.
The optimized parameters for the mass spectrometer were set as follows: curtain gas, 35 psi; collision gas, medium; ionspray voltage, 4500 V; temperature, 550 °C; ion source gas 1 and 2, 55 psi. […] Data acquisition and analysis were achieved by OS-Q software (version 1.4.1.20719, AB Sciex, USA). Pharmacokinetic analysis was conducted by Drug and Statistic software (version 3.0, Shanghai, China).
The developed methodology was then applied for the in vivo pharmacokinetic evaluations of these five absorbed components. After single or multiple gavages of BHGZD, rat serum was collected at indicated time points, and the concentrations of five analyte were quantified accordingly.

[1] = BHGZD 21.4 g/kg oral gavage, single dose, n = 8, mean ± SEM
[2] = BHGZD 21.4 g/kg/day gavage once a day for 12 days, multiple dose, sampled day 12, n = 8, mean ± SEM

Liquiritin apioside
AUC(0–∞) [1]: 28.06 ± 9.12 | Cmax [1]: 2.74 ± 1.23 ng/mL | MRT(0–t) [1]: 3.27 ± 0.80 | MRT(0–∞) [1]: 12.17 ± 12.65 | T1/2 [1]: 2.65 ± 1.57 h | Tmax [1]: 4.00 ± 1.77 h | AUC (0–t) [2]: 44.96 ± 10.19 | AUC(0–∞) [2]: 47.91 ± 11.00 | Cmax [2]: 12.29 ± 2.01 ng/mL | MRT(0–t) [2]: 3.15 ± 0.48 | MRT(0–∞) [2]: 3.46 ± 0.69 | T1/2 [2]: 1.18 ± 0.44 h | Tmax [2]: 3.62 ± 0.51 h
